Assay results reported in patent US20260263614A1, “ANTIBODY DRUG CONJUGATES THAT BIND CDCP1 AND USES THEREOF” (Pheon Therapeutics Ltd, priority 2022, published 2026).

Assay: S9 liver studies, summary for human and monkey
Conditions: DAR8 ADCs on a Trastuzumab backbone

Trastuzumab-DM1
Detected Metabolites in Liver Microsome S9 Studies: DM1
